# Test results: patent publication US20050032866A1, “The use of 5ht4 receptor antagonists in the prophylaxis or treatment of certain cardiovascular conditions” (priority 2000, published 2005)
# Amino acid sequences for entries named in this document (tags omitted). A change or cut given only in a name is not applied to a line headed by its entry.
# UniProt Q62758: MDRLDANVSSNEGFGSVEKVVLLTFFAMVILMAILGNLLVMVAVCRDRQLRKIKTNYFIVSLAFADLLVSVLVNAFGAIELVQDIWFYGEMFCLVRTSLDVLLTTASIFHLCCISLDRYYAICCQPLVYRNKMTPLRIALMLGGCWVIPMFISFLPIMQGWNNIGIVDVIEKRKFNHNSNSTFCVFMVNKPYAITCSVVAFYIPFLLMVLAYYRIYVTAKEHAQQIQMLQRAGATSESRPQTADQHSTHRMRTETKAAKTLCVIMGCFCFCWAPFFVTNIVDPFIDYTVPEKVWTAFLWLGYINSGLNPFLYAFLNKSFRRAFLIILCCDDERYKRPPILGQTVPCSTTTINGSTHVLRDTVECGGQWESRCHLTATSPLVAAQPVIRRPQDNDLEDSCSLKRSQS
# Molecular target: T1, 5-HT4 receptor (Rattus norvegicus, UniProt Q62758)
# T1 construct: The inner smooth muscle tube of the muscularis mucosae is isolated and mounted for isometric tension recording; from tissue; host or cells: rat oesophageal tunica muscularis mucosae
# Assay: rat oesophageal tunica muscularis mucosae, relaxation to 5-HT
# Format: cell-based
smiles,measurement,value
"NCCc1c[nH]c2ccc(O)cc12 [5-HT, reference compound]",EC50,7.94 nM
